According to patent publication US9550036B2 (priority 2011, dated 2017):

Conditions: in vivo

Question: With “2-pyridine aldoxime methyl chloride [2-PAM]” as the substance, how does the “dye localization in rat nasal cavity” value read?
Answer: deposited primarily within this olfactory region

Question: What about the “drug found in trachea or esophagus” value (rat) of the same substance?
Answer: none
